Measured values as given in PubChem BioAssay (NCI).
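Results reflect a 48-hour exposure of cells in 96-well plates to compound at five concentrations. Abbreviation: GI50, concentration required for 50% inhibition of growth. Definition used: TGI = concentration required for complete inhibition of growth.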

Tested on: MDA-MB-468 breast
Experiment: NCI tumour cell line growth inhibition, 48 h

Cc1c([N+](=O)[O-])cc([N+](=O)[O-])c(Br)c1[N+](=O)[O-]
GI50: 1290 nM
TGI: 2710 nM
